The record followed here is ChEMBL document CHEMBL1136761 (J Med Chem, 2003).

Assay [1] can be described thus: Ratio between the inhibition of serotonin and dopamine uptake.
The nature of assay [2]: Ratio between the inhibition of norepinephrine and dopamine uptake.

Take `Fc1ccc(CN2CCC(CCOC(c3ccc(F)cc3)c3ccc(F)cc3)CC2)cc1`: the figures for the Ratio in assay [1] and in assay [2] were 75 and 40, respectively.

Turning to `O=[N+]([O-])c1ccc(CN2CCC(CCOC(c3ccc(F)cc3)c3ccc(F)cc3)CC2)cc1`, the Ratio in assay [1] amounted to 226; in assay [2] it was 33.

As to `Brc1ccc(CN2CCC(CCOC(c3ccccc3)c3ccccc3)CC2)cc1`, the Ratio in assay [1] is 250; in assay [2] it was 101.

With `Fc1ccc(C(OCCC2CCN(Cc3ccc(I)cc3)CC2)c2ccc(F)cc2)cc1`, the Ratio came to 75 in assay [1] and 40 in assay [2].

Take `Fc1ccc(C(OCCC2CCN(Cc3ccc4ccccc4c3)CC2)c2ccc(F)cc2)cc1`: the Ratio in assay [1] came out at 38; in assay [2], 13.

Turning to `O=[N+]([O-])c1ccc(CN2CCC(CCOC(c3ccccc3)c3ccccc3)CC2)cc1`, the Ratio stood at 1310 in assay [1] and 76 in assay [2].
